The values below are quoted from earlier work in US20130090323A1, “HETEROCYCLIC COMPOUNDS AND THEIR USES” (Amgen Inc., priority 2010, published 2013).

Sequences of proteins named here, by UniProt entry; tags and fusion partners are left off. A change or cut given only in a name is not applied to a line headed by its entry.
UniProt P42338: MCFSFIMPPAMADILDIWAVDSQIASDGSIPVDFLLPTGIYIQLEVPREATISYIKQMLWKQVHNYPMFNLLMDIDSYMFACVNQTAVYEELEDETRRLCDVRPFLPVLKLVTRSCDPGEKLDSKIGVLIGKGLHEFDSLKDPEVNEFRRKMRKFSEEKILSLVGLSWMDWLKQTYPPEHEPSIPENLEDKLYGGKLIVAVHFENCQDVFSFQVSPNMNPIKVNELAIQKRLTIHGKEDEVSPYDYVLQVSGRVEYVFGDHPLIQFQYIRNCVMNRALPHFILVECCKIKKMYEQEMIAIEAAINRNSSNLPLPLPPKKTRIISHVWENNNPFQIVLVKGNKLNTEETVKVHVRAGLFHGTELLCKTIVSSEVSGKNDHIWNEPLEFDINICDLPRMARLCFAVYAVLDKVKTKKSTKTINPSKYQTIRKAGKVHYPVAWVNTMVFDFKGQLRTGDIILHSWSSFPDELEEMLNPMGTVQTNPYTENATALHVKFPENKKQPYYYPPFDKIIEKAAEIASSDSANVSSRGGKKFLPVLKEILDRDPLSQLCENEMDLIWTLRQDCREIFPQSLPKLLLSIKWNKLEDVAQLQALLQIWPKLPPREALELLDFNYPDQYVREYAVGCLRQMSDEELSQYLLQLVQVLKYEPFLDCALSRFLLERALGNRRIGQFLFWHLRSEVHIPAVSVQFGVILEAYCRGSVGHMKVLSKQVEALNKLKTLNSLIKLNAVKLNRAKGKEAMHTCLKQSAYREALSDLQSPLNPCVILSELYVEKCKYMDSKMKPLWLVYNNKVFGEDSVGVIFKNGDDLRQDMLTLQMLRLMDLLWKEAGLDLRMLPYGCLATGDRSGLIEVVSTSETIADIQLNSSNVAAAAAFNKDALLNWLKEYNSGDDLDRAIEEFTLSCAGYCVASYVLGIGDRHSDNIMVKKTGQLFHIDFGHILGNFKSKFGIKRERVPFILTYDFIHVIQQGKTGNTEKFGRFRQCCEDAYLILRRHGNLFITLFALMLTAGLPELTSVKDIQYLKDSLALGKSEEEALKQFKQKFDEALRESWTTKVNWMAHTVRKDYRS

Structures are written as SMILES.

This series deals with p110β (Homo sapiens, UniProt P42338). To be noted: read-out: potency on beta.

With `Cc1cc(C(C)Nc2ccccc2)c2nc(N3CCOCC3)cc(=O)n2c1` (stereo not shown) [TGX-221], the IC50 was 7 nM.
